Assay results taken from patent US12162865B2, “Methods of treating cancer” (Epizyme, Inc., priority 2012, dated 2024).
Where two headings read alike, the source gives them in different places.

Tests used:
Toledo cells = details: EZH2 Wild Type, 11 days
Pfeiffer cells = details: EZH2 A677G, 11 days, mean n = 2
[1] = tested on: WSU-DLCL2 EZH2 Y641F mutant xenograft; details: SCID mice, oral, 4 or 7 days; 5 minutes before or 3 hours after last dose
SU-DHL-10 cells = details: SU-DHL-10, EZH2 Y641F; 11 days
SU-DHL-6 cells = details: SU-DHL-6, EZH2 Y641N; 11 days
[2] = tested on: subcutaneous G401 xenografts
WSU-DLCL2 cells = details: WSU-DLCL2, EZH2 Y641F; 11 days; mean n = 15
DOHH-2 cells = details: DOHH-2, EZH2 Wild Type; 11 days
[3] = tested on: H3K27Me3 in PBMCs, bone marrow and skin; details: 100, 300, or 1000 mg/kg oral, 28 days
RL cells = details: EZH2 Y641N, 11 days
OCI-LY19 cells = details: OCI-LY19, EZH2 Wild Type; 11 days; n = 9
Karpas-422 cells = details: Karpas-422, EZH2 Y641N; 11 days
Farage cells = details: EZH2 Wild Type, 11 days

CCN(c1cc(-c2ccc(CN3CCOCC3)cc2)cc(C(=O)NCc2c(C)cc(C)[nH]c2=O)c1C)C1CCOCC1 [Compound A, N-((4,6-dimethyl-2-oxo-1,2-dihydropyridin-3-yl)methyl)-5-(ethyl (tetrahydro-2H-pyran-4-yl)amino)-4-methyl-4′-(morpholinomethyl)-[1,1′-biphenyl]-3-carboxamide]
LCC (lowest cytotoxic concentration) (Toledo cells): >10 µmol/L | LCC (lowest cytotoxic concentration) (Pfeiffer cells): 0.0005 µmol/L | plasma levels (systemic exposure) [1]: dose dependent increase in exposure | LCC (lowest cytotoxic concentration) (SU-DHL-10 cells): 0.14 µmol/L | LCC (lowest cytotoxic concentration) (SU-DHL-6 cells): 0.21 µmol/L | antitumor effect during the administration period ([2]; 125 mg/kg): tumor stasis | antitumor effect during the administration period ([2]; 133 mg/kg): stasis | LCC (lowest cytotoxic concentration) (WSU-DLCL2 cells): 0.17 µmol/L | LCC (lowest cytotoxic concentration) (DOHH-2 cells): >10 µmol/L | target inhibition in PBMCs and bone marrow (ELISA) [3]: Dose-dependent target inhibition | LCC (lowest cytotoxic concentration) (RL cells): >25 µmol/L | LCC (lowest cytotoxic concentration) (OCI-LY19 cells): 10 to 25 µmol/L | LCC (lowest cytotoxic concentration) (Karpas-422 cells): 0.12 µmol/L | LCC (lowest cytotoxic concentration) (Farage cells): >10 µmol/L
